Laboratory results reported in paper PMC9698607, “Dual Functionalized Liposomes for Selective Delivery of Poorly Soluble Drugs to Inflamed Brain Regions” (Pharmaceutics, 2022).

Test system: hCMEC/D3 cells

EP to TRITC-dextran: 7.32 ± 0.95 × 10^−5 cm/min
Substance: TRITC-dextran
